Results taken from PubChem BioAssay (NCI).
The list shows a part of the results, in another mix than the full data.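 Cell lines were cultured in 96-well plates, exposed to a single compound concentration, and assessed for percent growth 48 hours later.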 Calls of active or inactive are those of the source. How the source made its calls: active means growth percent below 10; inactive means the rest.

What was measured:
Assay in all cases: NCI-60 one-dose screen, 48 h (100 = growth as untreated, 0 = no growth, -100 = all killed)
DU-145 prostate = conditions: 10 µM unless noted
K-562 leukemia = conditions: 10 µM unless noted
MALME-3M melanoma = conditions: 10 µM unless noted
MDA-MB-231 breast = conditions: 10 µM unless noted
RXF 393 renal = conditions: 10 µM unless noted
SF-268 CNS = conditions: 10 µM unless noted
SF-295 CNS = conditions: 10 µM unless noted
SF-539 CNS = conditions: 10 µM unless noted
UACC-257 melanoma = conditions: 10 µM unless noted
HCT-15 colon = conditions: 10 µM unless noted
HT29 colon = conditions: 10 µM unless noted
SNB-75 CNS = conditions: 10 µM unless noted
SNB-19 CNS = conditions: 10 µM unless noted
U251 CNS = conditions: 10 µM unless noted
SK-MEL-5 melanoma = conditions: 10 µM unless noted
UACC-62 melanoma = conditions: 10 µM unless noted
LOX IMVI melanoma = conditions: 10 µM
SK-MEL-28 melanoma = conditions: 10 µM unless noted
M14 melanoma = conditions: 10 µM unless noted
PC-3 prostate = conditions: 10 µM unless noted

Measured: growth

Nc1cccc2c([As](=O)(O)O)cccc12
inactive: DU-145 prostate 112% | K-562 leukemia 92.3% | MALME-3M melanoma 114% | MDA-MB-231 breast 113% | RXF 393 renal 112% | SF-268 CNS 103% | SF-295 CNS 108% | SF-539 CNS 94.7% | UACC-257 melanoma 96% | HCT-15 colon 120% | HT29 colon 112% | SNB-75 CNS 80.3% | SNB-19 CNS 97.1% | U251 CNS 108% | SK-MEL-5 melanoma 101% | UACC-62 melanoma 99.1% | LOX IMVI melanoma 108% | SK-MEL-28 melanoma 122%

ClCCN1Cc2ccccc2C1
inactive: DU-145 prostate 101% | K-562 leukemia 118% | MALME-3M melanoma 95.2% | MDA-MB-231 breast 95.8% | RXF 393 renal 98.1% | SF-268 CNS 103% | SF-295 CNS 97.7% | UACC-257 melanoma 98.6% | M14 melanoma 95.1% | HCT-15 colon 100% | HT29 colon 98.3% | SNB-75 CNS 78.8% | SNB-19 CNS 96.9% | U251 CNS 95.1% | PC-3 prostate 90.5% | SK-MEL-5 melanoma 95.2% | UACC-62 melanoma 85.1% | LOX IMVI melanoma 99.8% | SK-MEL-28 melanoma 97.9%

O=[N+]([O-])c1ccc([N+](=O)[O-])cc1
inactive: DU-145 prostate 97.4% | K-562 leukemia 123% | MALME-3M melanoma 104% | MDA-MB-231 breast 82.6% | RXF 393 renal 110% | SF-268 CNS 83.7% | SF-295 CNS 118% | SF-539 CNS 97.8% | UACC-257 melanoma 91.2% | HCT-15 colon 104% | HT29 colon 113% | SNB-75 CNS 88.4% | SNB-19 CNS 103% | U251 CNS 103% | PC-3 prostate 91.7% | SK-MEL-5 melanoma 115% | UACC-62 melanoma 92.2% | LOX IMVI melanoma 116% | SK-MEL-28 melanoma 113%

CCOP(=O)(CCCBr)OCC
inactive: DU-145 prostate 115% | K-562 leukemia 107% | MALME-3M melanoma 109% | MDA-MB-231 breast 122% | RXF 393 renal 105% | SF-268 CNS 114% | SF-539 CNS 102% | UACC-257 melanoma 102% | M14 melanoma 115% | HCT-15 colon 104% | HT29 colon 101% | SNB-75 CNS 83.5% | SNB-19 CNS 100% | U251 CNS 102% | PC-3 prostate 97.5% | SK-MEL-5 melanoma 98.2% | UACC-62 melanoma 103% | LOX IMVI melanoma 104% | SK-MEL-28 melanoma 103%

COc1cc([N+](=O)[O-])cc([N+](=O)[O-])c1
inactive: DU-145 prostate 111% | K-562 leukemia 106% | MALME-3M melanoma 131% | MDA-MB-231 breast 88.3% | RXF 393 renal 121% | SF-268 CNS 98.5% | SF-295 CNS 117% | SF-539 CNS 106% | UACC-257 melanoma 100% | HCT-15 colon 96.9% | HT29 colon 108% | SNB-75 CNS 102% | SNB-19 CNS 94.7% | U251 CNS 98.7% | PC-3 prostate 88% | SK-MEL-5 melanoma 101% | UACC-62 melanoma 87.1% | LOX IMVI melanoma 102% | SK-MEL-28 melanoma 108%

CC(C)(NCCCl)C(O)c1ccccc1 (stereo not given)
inactive: DU-145 prostate 96.9% | K-562 leukemia 87.1% | MALME-3M melanoma 105% | MDA-MB-231 breast 90.5% | RXF 393 renal 97.2% | SF-268 CNS 101% | SF-295 CNS 101% | SF-539 CNS 94.2% | M14 melanoma 91.7% | HCT-15 colon 94% | HT29 colon 66.7% | SNB-75 CNS 77.7% | SNB-19 CNS 93.2% | U251 CNS 77.6% | PC-3 prostate 58.2% | SK-MEL-5 melanoma 95% | UACC-62 melanoma 85.3% | LOX IMVI melanoma 93.4% | SK-MEL-28 melanoma 105%

Cc1ccc(S(=O)(=O)CN(CCCl)CCCl)cc1
inactive: DU-145 prostate 110% | K-562 leukemia 104% | MALME-3M melanoma 106% | MDA-MB-231 breast 116% | SF-268 CNS 102% | SF-295 CNS 94.4% | SF-539 CNS 103% | UACC-257 melanoma 110% | M14 melanoma 108% | HCT-15 colon 99.2% | HT29 colon 128% | SNB-75 CNS 83.1% | SNB-19 CNS 108% | PC-3 prostate 100% | SK-MEL-5 melanoma 103% | UACC-62 melanoma 93.7% | LOX IMVI melanoma 99.7% | SK-MEL-28 melanoma 103%

CCCC1OP(=O)(Nc2ccccc2)OCC1CC (stereo not given)
inactive: DU-145 prostate 106% | K-562 leukemia 107% | MDA-MB-231 breast 100% | RXF 393 renal 122% | SF-268 CNS 98.8% | SF-295 CNS 98.8% | SF-539 CNS 101% | UACC-257 melanoma 101% | M14 melanoma 105% | HCT-15 colon 103% | HT29 colon 106% | SNB-75 CNS 86.9% | SNB-19 CNS 103% | U251 CNS 99.2% | PC-3 prostate 93.6% | SK-MEL-5 melanoma 108% | UACC-62 melanoma 97.4% | LOX IMVI melanoma 101% | SK-MEL-28 melanoma 113%
